SMILES strings stand for the structures.

By UniProt entry, the sequences of proteins in these tests, tags left out. Where a name states a change or a piece, a line headed by the entry shows the natural chain unless it says otherwise.
UniProt P43490: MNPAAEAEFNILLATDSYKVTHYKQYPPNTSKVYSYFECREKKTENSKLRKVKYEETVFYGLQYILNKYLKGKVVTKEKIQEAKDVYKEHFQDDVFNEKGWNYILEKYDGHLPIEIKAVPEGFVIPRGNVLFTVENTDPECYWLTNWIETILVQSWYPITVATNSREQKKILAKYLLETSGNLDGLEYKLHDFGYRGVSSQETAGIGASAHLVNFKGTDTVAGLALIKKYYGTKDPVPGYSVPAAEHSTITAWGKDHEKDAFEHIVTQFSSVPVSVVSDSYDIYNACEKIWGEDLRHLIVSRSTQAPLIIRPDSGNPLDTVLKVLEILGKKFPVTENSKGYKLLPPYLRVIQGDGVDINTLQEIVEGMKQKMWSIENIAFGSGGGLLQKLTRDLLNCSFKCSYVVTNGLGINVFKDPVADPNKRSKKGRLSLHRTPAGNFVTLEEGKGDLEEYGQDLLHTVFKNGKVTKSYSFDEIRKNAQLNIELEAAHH

For this assay, the target named is Nicotinamide phosphoribosyltransferase (Homo sapiens, UniProt P43490).

In the case of `CCOC(=O)c1ccc(NC(=O)NCc2ccncc2)cc1`, it took 3.3 µM to reach a half-maximal effect (EC50).

The values are drawn from ChEMBL document CHEMBL4819093, “Discovery of 1-[2-(1-methyl-1H-pyrazol-5-yl)-[1,2,4]triazolo[1,5-a]pyridin-6-yl]-3-(pyridin-4-ylmethyl)urea as a potent NAMPT (nicotinamide phosphoribosyltransferase) activator with attenuated CYP inhibition” (Bioorg Med Chem Lett, 2021).
